Protein sequences, listed by entry. Tags and fused reporters are not part of them. Residues count along the entry.
UniProt P02649, 19-317 C130R: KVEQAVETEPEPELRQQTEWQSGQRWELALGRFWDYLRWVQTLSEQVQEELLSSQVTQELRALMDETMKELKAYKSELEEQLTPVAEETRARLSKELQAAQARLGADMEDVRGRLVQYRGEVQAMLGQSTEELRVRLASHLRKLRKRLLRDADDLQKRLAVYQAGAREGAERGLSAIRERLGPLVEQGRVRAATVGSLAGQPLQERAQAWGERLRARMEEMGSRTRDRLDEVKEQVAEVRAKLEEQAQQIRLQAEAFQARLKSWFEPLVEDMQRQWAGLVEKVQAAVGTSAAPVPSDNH

In patent publication US7632816B2, “Treatment of Alzheimer amyloid deposition” (New York University, priority 2003, dated 2009):

Legend:
apoE4 = biological target: T1, apoE4 (Homo sapiens, UniProt P02649, C130R); assay: Toxicity rescue: neutralizing apoE4's effect on Aβ1-42 neurotoxicity, MTT assay in SK-N-SH cells; assay type: cell-based; conditions: Aβ1-42 100 μmol/L, apoE4 0.5 μmol/L preincubated with 0.5 μmol/L peptide; two day p<0.05, 6 day p<0.01
T1 construct: made in house; host or cells: primary forebrain astrocytes of GFAP-human apoE4 transgenic mice
Protocol: (§1) In toxicity rescue experiments, Aβ12-28 or Aβ12-28P were used to neutralize apoE4's effect on Aβ1-42 neurotoxicity. Aβ12-28 or Aβ12-28P were preincubated with apoE4 in an equimolar concentration for 6 h at 37° C., then mixed with Aβ1-42, followed by addition to microtiter plates containing cells prepared as described above. The obtained results were compared to the viability of cells incubated with Aβ1-42 alone and Aβ1-42 with apoE4. Cells incubated with apoE alone, Aβ1-42+Aβ12-28 and Aβ1-42+Aβ12-28P, were used as additional controls. The final concentration of peptides was as follows: Aβ1-42 100 μmol/L, Aβ12-28 and Aβ12-28P 0.5 μmol/L, and apoE4 0.5 μmol/L. Two- and six-day experiments were performed and cell viability was assessed using the MTT assay. All experiments were run in triplicate. The results from cell culture neurotoxicity studies were evaluated by one-way analysis of variance, followed by a Dunnett's test as a post hoc analysis.
(§2) The viability of SK-N-SH cells incubated in the presence of apoE4 alone (0.5 μmol/L) was not reduced compared to the control group (only vehicle added).

[1] = Thioflavin-T assay of the peptides' own amyloid fibril formation; assay type: physicochemical; conditions: 100 μmol/L peptide, 37° C.
Excerpt: The fibrillogenic potential of Aβ12-28 and Aβ12-28P was investigated using a Thioflavin-T assay according to previously published methods (Wisniewski et al., “Acceleration of Alzheimer's Fibril Formation by Apolipoprotein E in vitro,” Am. J. Pathol. 145:1030-1035 (1994); Castano et al., “Fibrillogenesis in Alzheimer's Disease of Amyloid Beta Peptides and Apolipoprotein E,” Biochem. J. 306:599-604 (1995); which are hereby incorporated by reference in their entirety). […] Aβ12-28 and Aβ12-28P used for these experiments were both synthesized from D-amino acids to avoid effect of different racemic conformers on the fibril formation. […] Samples containing 15 μg of incubated peptides were taken at indicated intervals and fluorescence was measured as previously described in a Perkin-Elmer LS-50B fluorescence spectrophotometer (Perkin Elmer Instruments, Shelton, Conn.) (Wisniewski et al., “Acceleration of Alzheimer's Fibril Formation by Apolipoprotein E in vitro,” Am. J. Pathol. 145:1030-1035 (1994); Golabek et al., “The Interaction Between Apolipoprotein E and Alzheimer's Amyloid β-peptide is Dependent on β-peptide Conformation,” J. Biol. Chem. 271:10602-10606 (1996); which are hereby incorporated by reference in their entirety). […]
None of the HFIP treated peptides were fibrillar at time=0 as assessed by Thioflavin-T assay.

Aβ1-42 = Aβ1-42 toxicity in SK-N-SH cells with peptide added without apoE, MTT assay; assay type: cell-based, human
Protocol: as §1, §2

[2] = assay type: physicochemical
Excerpt: Circular dichroism (“CD”) was used to study the secondary structure of peptides in solution as described previously (Golabek et al., “The Interaction Between Apolipoprotein E and Alzheimer's Amyloid β-peptide is Dependent on β-peptide Conformation,” J. Biol. Chem. 271:10602-10606 (1996); Soto et al., “Alzheimer's Soluble β-amyloid is Conformationally Modified by Apolipoproteins in vitro,” Neuroreport 7:721-725 (1996); which are hereby incorporated by reference in their entirety). Aliquots of HFIP treated peptides were diluted in 5 mmol/L Tris buffer (pH 7.0) to obtain a peptide concentration of 100 μmol/L, and were incubated at 37° C. CD was measured at indicated intervals with t=0 being immediately after the peptide was reconstituted. Measurements were on a Jasco J-720 spectropolarimeter (Easton, Md.), equipped with a model CTC-344 circular temperature control system (Neslab Inc., Newington, N.H.), at final protein concentration of 0.15 mg/ml in a cell with 0.1 cm path length. The spectra were recorded at 1 nm intervals over the wavelength range of 190-260 nm at 15° C. Results were expressed as molar ellipticity in units of deg-cm^2-dmol^−1, and the data were analyzed by the Lincomb, convex constraints and neural network algorithms to obtain percentages of different types of secondary structures using Softsec software (Softwood Inc., PA.) (Perczel et al., “Analysis of Circular Dichroism Spectrum of Proteins Using the Convex Constraint Algorithm,” Anal. Biochem. 203:83-93 (1992); Manavalan et al., “Variable Selection Method Improves the Prediction of Protein Secondary Structure from Circular Dichroism,” Anal. Biochem. 167:76-85 (1987); Toumadje et al., “Extending CD Spectra of Proteins to 168nm Improves the Analysis for Secondary Structures,” Anal. Biochem. 200:321-331 (1992); Sreerma et al., “A Self-consistent Method for the Analysis of Protein Secondary Structure from Circular Dichroism,” Anal. Biochem. 209:32-44 (1993); which are hereby incorporated by reference in their entirety). […]

[3] = CD immediately after reconstitution, 5 mmol/L Tris pH 7.0

CC(=O)N[C@@H](C(=O)N[C@H](Cc1c[nH]cn1)C(=O)N[C@H](Cc1c[nH]cn1)C(=O)N[C@H](CCC(N)=O)C(=O)N[C@H](CCCCN)C(=O)N[C@H](CC(C)C)C(=O)N[C@@H](C(=O)N[C@H](Cc1ccccc1)C(=O)N[C@H](Cc1ccccc1)C(=O)N[C@H](C)C(=O)N[C@H](CCC(=O)O)C(=O)N[C@H](CC(=O)O)C(=O)N[C@@H](C(=O)NCC(=O)N[C@H](CO)C(=O)N[C@H](CC(N)=O)C(=O)N[C@H](CCCCN)C(N)=O)C(C)C)C(C)C)C(C)C [Aβ12-28, reference compound]
rescue of cell viability from apoE4-enhanced Aβ1-42 toxicity (apoE4): significant rescue of the cell viability; also recorded: could be neutralized
day when fluorescence levels reached a plateau [1]: 6 days
fibril formation (Thioflavin-T fluorescence) ([1]; up to 10 days): formed a small amount of fibrils; also recorded: modest ability
cell viability, Aβ1-42 incubated with peptide (Aβ1-42; 10 μmol/L Aβ1-42 with 10 μmol/L peptide): Much more striking improvement in cell viability
cell viability, peptide added to Aβ1-42 without apoE (Aβ1-42; Aβ1-42 100 μmol/L, peptide 0.5 μmol/L, time not stated): could not be demonstrated; also recorded: did not produced significant improvement in cell viability
β-sheet content ([2]; CD at time=0): 2%
random coil, share of the total protein structure [2, 3]: 57%
∝-helix, share of the total protein structure [2, 3]: 41%

“Also recorded” adds a separate entry of the source.
